# Earlier results in patent US4461901A, “Pyridyl containing 1,2-benzisothiazole-3-amine derivatives” (American Home Products Corporation, priority 1983, dated 1984).
# Test system: H2 histamine receptors
# Conditions: background statement; cited from earlier work
compound,measurement,value
CNC(=C[N+](=O)[O-])NCCSCc1ccc(CN(C)C)o1 [ranitidine],selective H2 antagonist activity versus cimetidine,greater activity than cimetidine
